Data on one compound can be found in patent US9499523B2, “Phosphatidylinositol 3-kinase inhibitors” (Gilead Sciences, Inc., priority 2014, dated 2016).

Amino acid sequences for entries named in this document (tags omitted). A change or cut given only in a name is not applied to a line headed by its entry.
UniProt P48736: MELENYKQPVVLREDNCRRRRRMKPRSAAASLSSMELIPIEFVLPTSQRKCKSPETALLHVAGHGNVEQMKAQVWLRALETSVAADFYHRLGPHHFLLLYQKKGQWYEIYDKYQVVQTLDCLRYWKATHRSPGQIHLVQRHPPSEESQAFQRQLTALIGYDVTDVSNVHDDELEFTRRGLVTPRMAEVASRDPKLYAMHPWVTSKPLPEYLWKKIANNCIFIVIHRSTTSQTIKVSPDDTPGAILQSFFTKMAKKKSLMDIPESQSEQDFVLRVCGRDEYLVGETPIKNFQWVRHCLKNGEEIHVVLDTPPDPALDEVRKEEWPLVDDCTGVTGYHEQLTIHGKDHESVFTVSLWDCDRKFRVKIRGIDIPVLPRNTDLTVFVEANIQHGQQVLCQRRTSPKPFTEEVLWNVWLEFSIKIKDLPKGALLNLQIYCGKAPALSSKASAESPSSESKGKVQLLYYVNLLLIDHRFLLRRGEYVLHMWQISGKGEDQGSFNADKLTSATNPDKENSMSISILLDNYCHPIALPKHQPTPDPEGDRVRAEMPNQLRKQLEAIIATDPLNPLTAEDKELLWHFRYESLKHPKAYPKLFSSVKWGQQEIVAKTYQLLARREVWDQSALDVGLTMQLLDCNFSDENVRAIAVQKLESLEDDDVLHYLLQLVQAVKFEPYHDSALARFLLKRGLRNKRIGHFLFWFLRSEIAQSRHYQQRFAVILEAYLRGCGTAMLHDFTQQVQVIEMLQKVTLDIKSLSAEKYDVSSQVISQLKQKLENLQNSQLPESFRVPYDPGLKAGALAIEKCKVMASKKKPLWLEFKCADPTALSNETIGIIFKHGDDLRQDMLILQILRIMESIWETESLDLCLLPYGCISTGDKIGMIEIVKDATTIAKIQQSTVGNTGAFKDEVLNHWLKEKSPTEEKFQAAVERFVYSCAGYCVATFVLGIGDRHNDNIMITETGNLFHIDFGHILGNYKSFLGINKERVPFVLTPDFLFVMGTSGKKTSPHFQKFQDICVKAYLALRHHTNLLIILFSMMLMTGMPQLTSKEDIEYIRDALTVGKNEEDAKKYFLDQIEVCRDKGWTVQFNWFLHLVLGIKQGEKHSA
UniProt P42338: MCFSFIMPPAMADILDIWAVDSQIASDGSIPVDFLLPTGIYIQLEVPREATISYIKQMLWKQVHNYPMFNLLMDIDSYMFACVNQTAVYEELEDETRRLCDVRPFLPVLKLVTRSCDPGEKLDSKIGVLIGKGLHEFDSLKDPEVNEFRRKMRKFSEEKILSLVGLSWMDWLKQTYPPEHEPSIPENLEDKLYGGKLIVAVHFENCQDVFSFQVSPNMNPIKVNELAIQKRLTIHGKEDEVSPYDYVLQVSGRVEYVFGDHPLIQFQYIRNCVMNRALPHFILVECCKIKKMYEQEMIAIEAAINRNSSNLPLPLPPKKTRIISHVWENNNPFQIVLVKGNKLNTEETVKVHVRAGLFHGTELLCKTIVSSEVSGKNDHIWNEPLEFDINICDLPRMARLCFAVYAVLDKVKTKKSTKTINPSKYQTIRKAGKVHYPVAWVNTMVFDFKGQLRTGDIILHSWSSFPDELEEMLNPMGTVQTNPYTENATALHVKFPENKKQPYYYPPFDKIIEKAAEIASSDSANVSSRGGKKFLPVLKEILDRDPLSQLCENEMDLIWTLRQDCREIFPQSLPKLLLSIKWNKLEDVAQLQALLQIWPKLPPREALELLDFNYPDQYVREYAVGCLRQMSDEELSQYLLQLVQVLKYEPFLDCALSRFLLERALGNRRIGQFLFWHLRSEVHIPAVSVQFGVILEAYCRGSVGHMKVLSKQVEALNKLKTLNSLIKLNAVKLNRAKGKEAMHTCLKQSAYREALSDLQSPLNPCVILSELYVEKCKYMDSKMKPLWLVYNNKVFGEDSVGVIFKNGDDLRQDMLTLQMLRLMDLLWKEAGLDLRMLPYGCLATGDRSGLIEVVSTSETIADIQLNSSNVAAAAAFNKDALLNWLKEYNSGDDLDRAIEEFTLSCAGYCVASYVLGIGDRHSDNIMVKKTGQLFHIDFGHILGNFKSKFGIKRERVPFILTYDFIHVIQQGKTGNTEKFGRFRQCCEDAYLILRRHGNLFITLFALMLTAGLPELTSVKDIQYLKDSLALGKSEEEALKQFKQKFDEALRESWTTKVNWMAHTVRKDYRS
UniProt O00329: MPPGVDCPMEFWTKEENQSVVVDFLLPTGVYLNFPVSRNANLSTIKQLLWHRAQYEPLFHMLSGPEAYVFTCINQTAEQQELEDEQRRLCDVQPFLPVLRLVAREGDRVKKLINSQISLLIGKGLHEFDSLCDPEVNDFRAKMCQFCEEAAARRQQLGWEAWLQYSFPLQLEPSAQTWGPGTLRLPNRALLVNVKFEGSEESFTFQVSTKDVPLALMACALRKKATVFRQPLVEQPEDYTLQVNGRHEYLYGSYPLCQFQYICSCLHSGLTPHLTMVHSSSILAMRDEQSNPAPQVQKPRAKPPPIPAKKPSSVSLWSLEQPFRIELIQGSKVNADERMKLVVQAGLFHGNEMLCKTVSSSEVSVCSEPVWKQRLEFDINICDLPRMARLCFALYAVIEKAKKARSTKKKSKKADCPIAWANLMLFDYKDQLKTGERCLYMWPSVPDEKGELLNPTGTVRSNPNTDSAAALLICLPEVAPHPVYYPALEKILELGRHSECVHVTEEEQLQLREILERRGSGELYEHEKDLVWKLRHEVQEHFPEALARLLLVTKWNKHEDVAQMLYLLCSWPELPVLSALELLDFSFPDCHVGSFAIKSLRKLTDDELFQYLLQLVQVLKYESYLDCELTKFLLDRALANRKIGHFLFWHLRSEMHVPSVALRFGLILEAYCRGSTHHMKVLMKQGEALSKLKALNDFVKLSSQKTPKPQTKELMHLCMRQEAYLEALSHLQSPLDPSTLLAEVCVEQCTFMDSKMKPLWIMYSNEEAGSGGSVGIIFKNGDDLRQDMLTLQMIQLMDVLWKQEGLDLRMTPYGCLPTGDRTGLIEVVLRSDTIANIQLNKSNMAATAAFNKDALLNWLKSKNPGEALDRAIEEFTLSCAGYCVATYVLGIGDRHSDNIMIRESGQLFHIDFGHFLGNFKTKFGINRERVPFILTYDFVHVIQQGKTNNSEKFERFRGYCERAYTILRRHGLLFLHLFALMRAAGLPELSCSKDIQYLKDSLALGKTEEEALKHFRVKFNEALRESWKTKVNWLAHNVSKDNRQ

One test has as its target PI3Kγ (Homo sapiens (Human), UniProt P48736). Description: TR-FRET enzymatic assay of PI3K isoforms, PI3Kγ. In kind it is biochemical. As to conditions: 2×Km ATP, PI3Kγ at 2 nM, 30 minutes at 25° C. (Time-resolved FRET reads energy transfer from a long-lived donor to a nearby acceptor.)
A further test concerns the target PI3Kβ (Homo sapiens (Human), UniProt P42338). Description: TR-FRET enzymatic assay of PI3K isoforms, PI3Kβ. As to conditions: 2×Km ATP, 30 minutes at 25° C. In kind it is biochemical.
Another test concerns the target PI3Kδ (Homo sapiens (Human), UniProt O00329). Description: TR-FRET enzymatic assay of PI3K isoforms, PI3Kδ. As to conditions: read-out: PI3Kδ IC50, 2×Km ATP, 30 minutes at 25° C.

Consider `C[C@H](Nc1nc(N)nc(N)c1C#N)c1nc2cccc(Cl)c2c(=O)n1-c1cccnc1` [Compound X, (S)-2,4-diamino-6-((1-(5-chloro-4-oxo-3-(pyridin-3-yl)-3,4-dihydroquinazolin-2-yl)ethyl)amino)pyrimidine-5-carbonitrile, reference compound], for which the IC50 worked out at 7 nM at PI3Kγ, 11 nM against PI3Kβ and 0.2 nM at PI3Kδ.

The term IC50 denotes the point on the concentration scale where inhibition reaches its midpoint.
